The values below come from publication PMC5747257 (Bioorganic & medicinal chemistry letters, 2017).

The subject of assay [1] is HDAC6 (substrate acetyl-α-tubulin, AcTub). The assay can be described thus: In cellulo selectivity, western blot of acetyl-α-tubulin in U937 cells. Format: cell-based. The settings on record: SAHA 5 µM, 1e 10–40 µM, compared to DMSO control.
The subject of assay [2] is Class I HDAC (HDAC1, 2, and 3) (substrate acetyl-histone 3, AcH3). Briefly: In cellulo selectivity, western blot of acetyl-histone H3 in U937 cells. Format: cell-based. As to conditions: SAHA 5 µM, 1e 10–40 µM, compared to DMSO control.

Turning to `O=C(CCCCCCC(=O)Nc1ccccc1)NO` [SAHA, Suberoylanilide hydroxamic acid], the “levels of acetyl-α-tubulin (AcTub)” value in assay [1] was “increased the levels of both acetyl-α-tubulin and acetyl-histone H3 to a similar extent”. Besides, the “levels of acetyl-histone H3 (AcH3)” value in assay [2] was “increased the levels of both acetyl-α-tubulin and acetyl-histone H3 to a similar extent”.
